Measurements reported in patent US12091650B2, “Development of spinal cord on a microfluidic chip” (EMULATE, INC., priority 2016, dated 2024).

Test system: blood brain barrier (BBB) on-chip, iPS-derived brain endothelial cells
Test: Barrier function test with human serum proteins (ELISA)
Format: in vitro ADME
Details: FIG. 47, ELISA
Procedure: In some embodiments, methods for seeding cells on-chip are provided, as follows for one example: Day—1: Activate and Coat Chips, Day 0: Seed HBMECs, Astrocytes and Pericytes.; Day 1: Initiate flow of media @60 μl/hr. Bottom channel only or Top and bottom channels.; Day 2: Initiate permeability assay: Dextran+ Serum proteins+ Compounds of interest.; Day 3: End permeability assay. Collect media and freeze.; Day 4: Test permeability modulators/experimental stimuli Day 5: Repeat permeability assay.; Day 6: End permeability assay—Collect media and freeze. Fix or lyse chips.

For “Albumin: human albumin, serum protein used in barrier function test”, the “diffusion / level in neuronal channel, from Vascular Channel to Neuronal Channel” value was “Low diffusion”.
